The values that follow are results of earlier work, collected in patent publication US11116748B2, “Compositions and methods for reducing weight gain” (THE MEDICAL COLLEGE OF WISCONSIN, INC., priority 2018, dated 2021).

This data set relates to gut microbiome. As to conditions: mice receiving risperidone; cited from earlier work.

`Cc1nc2n(c(=O)c1CCN1CCC(c3noc4cc(F)ccc34)CC1)CCCC2` [risperidone]: the non-aerobic resting metabolism entry is reported as “suppress non-aerobic resting metabolism”.
